Columns and labels:
Test in all cases: SPR; Biacore 3000; His-tagged eL42 species immobilised by amine coupling on a CM5 chip; eRF1 or EF-3 as analyte; 25°C, HBS-EP (10 mM HEPES pH 7.4, 150 mM NaCl, 3 mM EDTA, 0.005% P20), 5 µL/min; 1:1 Langmuir fit; mean of 3 experiments
[1] = biological target: human recombinant eL42-Δ(GGQTK) variant, His-tagged (human) (UniProt P83881)
[2] = biological target: recombinant human wild-type eL42 protein (large subunit ribosomal protein eL42, formerly RPL36A), His-tagged (human) (UniProt P83881)
[3] = biological target: human recombinant eL42-K53Q mutant (human) (UniProt P83881)
[4] = biological target: human recombinant eL42-Q51A/K53A double mutant (human) (UniProt P83881)
[5] = biological target: human recombinant eL42-Q51E mutant (human) (UniProt P83881)

- Kd [1]: 3120 nM
- koff [1]: 0.000487 s⁻¹
- kon [1]: 156 M⁻¹ s⁻¹
- Kd [2]: 37.5 nM
- koff [2]: 0.000199 s⁻¹
- kon [2]: 5300 M⁻¹ s⁻¹
- Kd [3]: 1280 nM
- koff [3]: 0.000188 s⁻¹
- kon [3]: 147 M⁻¹ s⁻¹
- Kd [4]: 1620 nM
- koff [4]: 0.000379 s⁻¹
- kon [4]: 234 M⁻¹ s⁻¹
- Kd [5]: 1920 nM
- koff [5]: 0.000251 s⁻¹
- kon [5]: 131 M⁻¹ s⁻¹
Substance: human translation termination factor eRF1 (from UniProt P62495 1-437) (natural protein)

— publication PMC5418926
